From patent publication US7816096B2, “Assay solution compositions and methods for GPCR arrays” (priority 2003, dated 2010)

Sequences of proteins named here, by UniProt entry; tags and fusion partners are left off.
UniProt P35372, whole entry, species assumed: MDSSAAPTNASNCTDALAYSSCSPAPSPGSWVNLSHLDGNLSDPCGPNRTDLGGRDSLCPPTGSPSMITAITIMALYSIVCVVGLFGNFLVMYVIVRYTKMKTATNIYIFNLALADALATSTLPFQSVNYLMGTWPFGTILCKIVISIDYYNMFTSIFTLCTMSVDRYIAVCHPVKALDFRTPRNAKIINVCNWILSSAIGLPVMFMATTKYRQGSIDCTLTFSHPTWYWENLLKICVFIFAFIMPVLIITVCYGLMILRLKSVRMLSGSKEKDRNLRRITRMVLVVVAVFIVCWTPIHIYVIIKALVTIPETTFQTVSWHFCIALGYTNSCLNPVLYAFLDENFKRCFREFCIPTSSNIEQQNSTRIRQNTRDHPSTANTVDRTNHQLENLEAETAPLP

Molecular target: mu opioid receptor (Homo sapiens, UniProt P35372)
Details: 100 nM dynorphin A in agonist cocktail; 2 nM 35S-GTPγS

For dynorphin A, the “agonist-induced binding of 35S-GTPγS to mu opioid receptor microspots” value was “increased signals”.
